Test results published in patent publication US6365617B1, “Indole and indazole urea-peptoids as thrombin receptor antagonists” (Ortho-McNeil Pharmaceutical, Inc., priority 1999, dated 2002).

The chains behind the UniProt entries cited, without tags or fusion partners. Residues count along the entry.
UniProt P25116, 22-425 limits assumed: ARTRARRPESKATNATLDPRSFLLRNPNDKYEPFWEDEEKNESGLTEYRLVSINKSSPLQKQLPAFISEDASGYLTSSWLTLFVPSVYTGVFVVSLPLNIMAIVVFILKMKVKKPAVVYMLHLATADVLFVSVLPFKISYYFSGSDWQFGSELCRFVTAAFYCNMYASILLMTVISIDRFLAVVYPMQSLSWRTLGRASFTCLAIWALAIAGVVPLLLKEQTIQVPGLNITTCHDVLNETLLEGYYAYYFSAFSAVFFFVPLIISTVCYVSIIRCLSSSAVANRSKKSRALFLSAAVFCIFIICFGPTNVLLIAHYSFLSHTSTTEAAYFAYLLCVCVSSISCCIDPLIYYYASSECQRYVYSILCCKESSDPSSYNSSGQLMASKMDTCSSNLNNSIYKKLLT

Legend:
[1] = molecular target: thrombin receptor (PAR-1) (Homo sapiens, UniProt P25116); experiment: In vitro thrombin receptor binding assay (CHRF membranes, tritiated 721-40); conditions: read-out: Recptr Bdg. IC50, Table 1
Description: In Vitro Thrombin Receptor Binding Assay
CHRF membranes (Jones, Biochim. Biophys. Acta 1992, 1136, 272) are thawed from −70° C., centrifuged at maximum speed for 5 min, washed twice with binding buffer (50 mM HEPES containing 5 mM MgCl2 and 0.1% BSA), and re-suspended in binding buffer ([…]). 100 μL of membranes are added to the 24-Wallac plates and delivered to the Tomtech apparatus. In a typical experiment, 6 μL of samples (from a 125 μg/mL intermediary plate, 20% DMSO) and 44 μL buffer are delivered to the plates (final conc. of compounds is 3.7 μg/mL, 0.6% DMSO). Similarly, 6 μL 20% DMSO and 44 μL buffer are delivered to both column 1 (NSB) and column 12 (TB). 10 μL Ser-pFPhe-Har-Leu-Har-Lys-Tyr-NH2 (721-40; 500 μM in deionized water) is added to column 1. 50 μL tritiated 721-40 (specific activity 46 Ci/mmol) is added to all the wells. The plates are mixed well for 20 seconds, incubated for 30 min, and then harvested with 10 mM HEPES/138 mM NaCl using the Skatron harvester. The filters (GF/C Brandel FPXLR 296) are presoaked 3 h in 0.5% polyethylenimine in HEPES/0.1M N-acetylglucosamine) are set in saran wrap and dried for 3 min in the microwave, and placed in sample bags (Wallac 1450-432). 4.5 mL scintillation fluid (Wallac, Betaplate Scint 1205-440) is added. The bags are sealed, placed in filter cassettes (Wallac 1450-104), and analyzed on the microbeta counter.

[2] = tested on: gel-filtered platelets (thrombin-induced aggregation); experiment: In vitro inhibition of thrombin-induced gel-filtered platelet aggregation assay; conditions: read-out: GFP Aggr. IC50; Table 1; platelet aggregation stimulated by thrombin, gel-filtered human platelets
Description: In Vitro Inhibition Of Thrombin-induced Gel-filtered Platelet Aggregation Assay
The percentage of platelet aggregation is calculated as an increase in light transmission of compound-treated platelet concentrate vs. control-treated platelet concentrate. Human blood is obtained from drug free, normal donors in tubes containing 0.13M sodium citrate. Platelet rich plasma (PRP) is collected by centrifugation of whole blood at 200×g for 10 min at 25° C. The PRP (5 mL) is gel filtered through Sepharose 2B (bed volume 50 mL), and the platelet count is adjusted to 2×10^7 platelets per sample. The following constituents are added to a siliconized cuvette: concentrated platelet filtrate and Tyrode's buffer (0.14M NaCl, 0.0027M KCl, 0.012M NaHCO3, 0.76 mM Na2HPO4, 0.0055M glucose, 2 mg/mL BSA and 5.0 mM HEPES @ pH 7.4) in an amount equal to 350 μL, 50 μL of 20 mM calcium and 50 μL of the test compound. Aggregation is monitored in a BIODATA aggregometer for the 3 min following the addition of agonist (thrombin 50 μL of 1 unit/mL).

SMILES | pIC50 [1] | pIC50 [2]
NCCNC(=O)[C@H](Cc1ccc(F)c(F)c1)NC(=O)Nc1ccc2c(CN3CCCC3)cn(Cc3c(Cl)cccc3Cl)c2c1 | 7.15 | 6.00
NCCCN(Cc1ccncc1)C(=O)[C@H](Cc1ccc(F)c(F)c1)NC(=O)Nc1ccc2c(CN3CCCC3)cn(Cc3c(Cl)cccc3Cl)c2c1 | 4.54 | 6.40
NCCCCN(Cc1ccncc1)C(=O)[C@H](Cc1ccc(F)c(F)c1)NC(=O)Nc1ccc2c(CN3CCCC3)cn(Cc3c(Cl)cccc3Cl)c2c1 | 7.00 | 6.29
NCCCN(CC1CCCCC1)C(=O)[C@H](Cc1ccc(F)c(F)c1)NC(=O)Nc1ccc2c(CN3CCCC3)cn(Cc3c(Cl)cccc3Cl)c2c1 | 5.06 | 6.00
NCCCNC(=O)[C@H](Cc1ccc(F)c(F)c1)NC(=O)Nc1ccc2c(CN3CCCC3)nn(Cc3c(Cl)cccc3Cl)c2c1 | 7.00 | 6.59
NCCCCNC(=O)[C@H](Cc1ccc(F)c(F)c1)NC(=O)Nc1ccc2c(CN3CCCC3)cn(Cc3c(Cl)cccc3Cl)c2c1 | 7.00 | 5.77

pIC50: −log10 of the molar value.
